Test [1] deals with T1, ribose-5-phosphate isomerase (RPI1) (Ustilago maydis, UniProt Q4P6V4).
T1 sequence (Q4P6V4 1-286): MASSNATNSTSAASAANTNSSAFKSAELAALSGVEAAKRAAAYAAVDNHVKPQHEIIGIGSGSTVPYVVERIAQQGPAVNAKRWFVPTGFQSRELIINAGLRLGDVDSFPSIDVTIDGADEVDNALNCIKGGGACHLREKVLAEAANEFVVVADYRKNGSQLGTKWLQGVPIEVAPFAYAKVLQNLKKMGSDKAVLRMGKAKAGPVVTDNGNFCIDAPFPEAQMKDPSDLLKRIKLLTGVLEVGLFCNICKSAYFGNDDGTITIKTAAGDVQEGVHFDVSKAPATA
Nature of the test: biochemical.

Test [2] concerns the target T1, ribose-5-phosphate isomerase (RPI1). The following applies: coupled assay carried out in the presence of various phosphate concentrations.

What is called IC50 is the concentration at which inhibition is half-maximal. The compound `O=C1C=C(n2cccn2)c2ccccc2C1=O` [Example 1] gave an IC50 in test [1] of 20 µM.
Take phosphate: the “inhibitory effect of phosphate on the reaction” value in test [2] is “only very high phosphate concentrations show an inhibitory effecet”.
For the compound `COc1ccc(S(=O)(=O)N(C)C)cc1CCC(C)NCC1CC2(CCCC2)Oc2ccccc21.O=C(O)/C=C/C(=O)O` (stereo not drawn) [Example 2], the IC50 in test [1] is 20 µM.

Values taken from patent US20040191849A1, “Method for identifying fungicides” (priority 2002, published 2004).
